Measurements: ChEMBL document CHEMBL6114981, “Research progress of flavonoids targeting estrogen receptor in the treatment of breast cancer” (Bioorg Med Chem, 2025)

By UniProt entry, the sequences of proteins in these tests, tags left out.
UniProt P03372, whole entry: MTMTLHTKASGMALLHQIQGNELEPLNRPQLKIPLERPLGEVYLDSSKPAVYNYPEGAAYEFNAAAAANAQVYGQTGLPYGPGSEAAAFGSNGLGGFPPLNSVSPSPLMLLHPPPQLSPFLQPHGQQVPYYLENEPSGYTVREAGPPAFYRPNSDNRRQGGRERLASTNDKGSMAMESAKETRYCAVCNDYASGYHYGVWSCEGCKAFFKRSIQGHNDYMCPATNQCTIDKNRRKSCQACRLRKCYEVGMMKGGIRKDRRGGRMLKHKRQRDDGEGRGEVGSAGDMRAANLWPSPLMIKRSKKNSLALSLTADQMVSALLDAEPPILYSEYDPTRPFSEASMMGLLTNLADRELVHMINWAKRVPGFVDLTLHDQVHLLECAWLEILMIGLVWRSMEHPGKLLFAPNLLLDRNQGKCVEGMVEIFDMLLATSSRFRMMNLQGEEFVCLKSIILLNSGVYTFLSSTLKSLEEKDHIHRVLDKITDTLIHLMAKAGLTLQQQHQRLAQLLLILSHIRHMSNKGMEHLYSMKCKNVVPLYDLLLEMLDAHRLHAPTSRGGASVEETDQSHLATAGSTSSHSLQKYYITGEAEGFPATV

Key:
[1] = target: Estrogen receptor (Homo sapiens) (UniProt P03372); experiment: Binding affinity to ERalpha (unknown origin) assessed as relative binding affinity by fluorescence polarization assay relative to control
[2] = target: Estrogen receptor (Homo sapiens) (UniProt P03372); details: dose 1.0 µM

Compound | RBA [1] [%] | inhibition [2] [%]
Oc1ccc([C@H]2COc3cc(O)ccc3C2)cc1 | 0.1 | 
COc1ccc(-c2c(C(=O)c3ccc(OCCN4CCCCC4)cc3)c3ccc(OC)cc3oc2=O)cc1 | 0.16 | 
CC1=C(c2cc(F)cc(F)c2)C(c2ccc(/C=C/CN3CC(CF)C3)cc2)Oc2cc(O)ccc21 (stereo not drawn) |  | 41
